Measurements reported in PubChem BioAssay AID2130 (The Scripps Research Institute Molecular Screening Center, 2009).
This is a selection; strong and weak results do not stand in their true shares. Some of these compounds have results that are not shown, active ones among them. Calls of active or inactive are those of the source.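 Rule for the calls: active = inhibition above the campaign mean of all compounds plus 3 SD (cut at about 26% in these data); inactive = the rest.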

Chains of the proteins cited; added tags and fusions are not shown.
UniProt Q9Y570, whole entry: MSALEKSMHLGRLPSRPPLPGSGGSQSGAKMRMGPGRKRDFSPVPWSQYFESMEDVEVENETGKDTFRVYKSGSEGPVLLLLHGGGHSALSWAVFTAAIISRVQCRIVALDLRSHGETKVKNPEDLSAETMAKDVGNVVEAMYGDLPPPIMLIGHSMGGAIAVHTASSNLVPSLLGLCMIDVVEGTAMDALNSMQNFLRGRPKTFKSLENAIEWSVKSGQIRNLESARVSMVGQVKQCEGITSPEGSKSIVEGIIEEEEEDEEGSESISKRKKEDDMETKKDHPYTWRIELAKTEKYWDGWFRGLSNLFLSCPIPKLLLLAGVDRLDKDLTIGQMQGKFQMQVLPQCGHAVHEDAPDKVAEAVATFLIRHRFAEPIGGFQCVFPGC

target: Protein phosphatase methylesterase 1 (Homo sapiens) (UniProt Q9Y570); assay: PME-1 inhibitors via competitive probe labeling, primary screen, biochemical, fluorescence polarization, FP-Rh probe, HTS (AID 2130); details: recombinant PME-1, FP-Rh probe fluorescence polarization; at 5.9 µM; active compounds read high;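 note: competitive labeling of PME-1 active site by serine hydrolase directed probe; 0% = PME-1 with DMSO and 100% = wells lacking PME-1 enzyme; inhibitors block probe labeling so polarization falls and inhibition rises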

SMILES	inhibition
CC(C)N1C(=O)CC2(CCN(CCOC(=O)C(O)(c3ccccc3)c3ccccc3)CC2)C1=O	inactive: 4.09%
CCN(CC)CC(C)C(C)OC(=O)C(O)(c1ccccc1)c1ccccc1 (centres undefined)	inactive: 7.77%
COc1cc(SC)ccc1C(=O)NCC1(N(C)C)CCCCC1	inactive: -3.4%
Cc1ccc(C(=O)NCC2(N3CCCCC3)CCCCC2)cc1	inactive: -6.03%
O=C(NCC1(N2CCCCC2)CCCCC1)c1cc([N+](=O)[O-])ccc1Cl	inactive: -4.89%
CN1[C@@H]2CC[C@H]1CC(OC(=O)C(O)(c1ccccc1)c1ccccc1)C2 (some centres undefined)	inactive: 3.09%
C=CCN1CCN(CCOC(=O)C(O)(c2ccccc2)c2ccccc2)CC1	inactive: 2.68%
O=C(NCC1(N2CCCCC2)CCCCC1)c1cc(F)c(F)cc1Cl	inactive: -0.66%
CCN1CCCC(OC(=O)C2(O)c3ccccc3C=Cc3ccccc32)C1 (centres undefined)	inactive: -0.77%
Cc1cc(C(=O)NCC2(N3CCCCC3)CCCCC2)ccc1[N+](=O)[O-]	inactive: 4.13%
O=C(NCC1(N2CCCCC2)CCCCC1)c1cccc(Br)c1	inactive: 8.57%
COc1ccc(C(=O)NCC2(N(C)C)CCCCC2)cc1	inactive: -8.17%
Cc1ccccc1C(=O)NCC1(N2CCCCC2)CCCCC1	inactive: 0.77%
CN(C)c1ccc(C(=O)NCC2(N(C)C)CCCCC2)cc1	inactive: 3.06%
CN(C)C1CCCC1OC(=O)C(O)(c1ccccc1)c1ccccc1 (centres undefined)	inactive: 3.5%
COc1cccc(C(=O)NCC2(N3CCCCC3)CCCCC2)c1	inactive: 0.04%
COc1ccc(Cl)cc1C(=O)NCC1(N(C)C)CCCCC1	inactive: 3.81%
O=C(NCC1(N2CCCCC2)CCCCC1)c1cccc(Cl)c1	inactive: 0.2%
CN(C)C1(CNC(=O)c2ccc(Br)cc2)CCCCC1	inactive: -0.37%
COc1cc(C(=O)NCC2(N(C)C)CCCCC2)c([N+](=O)[O-])cc1OC	inactive: -3.56%
COc1ccc(Br)c(C(=O)NCC2(N3CCCCC3)CCCCC2)c1	inactive: -4.38%
CN(C)c1cccc(C(=O)NCC2(N(C)C)CCCCC2)c1	inactive: 2.49%
CC(C)Oc1ccc(C(=O)NCC2(N(C)C)CCCCC2)cc1	inactive: 7.2%
O=C(OC1CN2CCC1CC2)C(CO)(c1ccccc1)c1ccccc1 (centres undefined)	inactive: -1.4%
